The values that follow come from publication PMC4301837, “Aldosterone synthase inhibition: cardiorenal protection in animal disease models and translation of hormonal effects to human subjects” (Journal of Translational Medicine, 2014).

Series [1] in a line: in vivo. The settings on record: male, Sprague-Dawley, rat, plasma, po.
For series [2], the system named is Ang-II-stimulated aldosterone synthesis. The series is described as follows: animal or person. To be noted: Rattus norvegicus, read-out: half-maximal effective plasma LCI699 concentration (EC50), Ang-II-stimulated aldosterone.
For series [3], the system named is dTG rats overexpressing human renin and angiotensinogen. The series is described as follows: animal or person. The settings on record: Rattus norvegicus, feed or water, read-out: EC50 for normalizing plasma aldosterone concentration.

Consider `N#Cc1ccc([C@H]2CCc3cncn32)c(F)c1` [LCI699], for which the Tmax in series [1] lay in the range of 0.3 to 2.4 h. The figures for the EC50 in series [2] and in series [3] were 127 nM and 50 nM, respectively.

What is called Tmax is the time at which the peak concentration occurs.
